Measured values taken from patent publication US6472438B1, “Active topical skin protectants containing S-330” (dated 2002).

Assay: Reaction of S-330 with nerve agents

## N=C1N(Cl)C2(c3ccccc3)N(Cl)C(=N)N(Cl)C2(c2ccccc2)N1Cl (stereo not shown)
  Reactivity with nerve agents: does not react with nerve agents
